Laboratory results as given in BindingDB's records for doi:10.1021/jm00065a015 (Smithkline Beecham Pharmaceuticals, 1993).

Protein sequences, listed by entry. Tags and fused reporters are not part of them. Lines headed by an entry give the natural chain unless they say otherwise; changes in a name come on top.
UniProt P08909: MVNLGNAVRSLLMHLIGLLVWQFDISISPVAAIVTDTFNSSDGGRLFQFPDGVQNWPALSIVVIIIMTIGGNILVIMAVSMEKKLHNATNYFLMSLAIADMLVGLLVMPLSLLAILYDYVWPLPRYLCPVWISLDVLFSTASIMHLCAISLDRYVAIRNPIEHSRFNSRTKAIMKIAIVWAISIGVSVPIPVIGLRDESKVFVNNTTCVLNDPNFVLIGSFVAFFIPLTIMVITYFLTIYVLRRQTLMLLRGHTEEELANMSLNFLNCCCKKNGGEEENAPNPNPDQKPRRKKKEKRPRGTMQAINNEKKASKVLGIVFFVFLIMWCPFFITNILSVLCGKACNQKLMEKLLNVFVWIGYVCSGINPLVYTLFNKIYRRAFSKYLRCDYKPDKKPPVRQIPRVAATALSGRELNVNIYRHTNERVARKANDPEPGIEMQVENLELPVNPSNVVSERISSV
UniProt P14842, whole entry: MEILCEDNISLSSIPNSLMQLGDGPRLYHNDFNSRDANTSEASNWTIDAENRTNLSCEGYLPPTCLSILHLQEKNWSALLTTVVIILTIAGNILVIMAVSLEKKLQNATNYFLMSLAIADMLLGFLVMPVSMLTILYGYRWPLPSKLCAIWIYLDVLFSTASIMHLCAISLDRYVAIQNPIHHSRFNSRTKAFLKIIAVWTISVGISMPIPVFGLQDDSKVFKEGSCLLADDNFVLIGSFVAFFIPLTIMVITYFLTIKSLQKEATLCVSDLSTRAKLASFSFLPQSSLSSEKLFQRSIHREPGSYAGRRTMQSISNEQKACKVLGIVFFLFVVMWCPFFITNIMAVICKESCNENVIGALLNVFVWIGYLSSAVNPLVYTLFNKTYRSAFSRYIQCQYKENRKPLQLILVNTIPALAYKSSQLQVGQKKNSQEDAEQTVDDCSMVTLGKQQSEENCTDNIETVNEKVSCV
UniProt P30994, whole entry: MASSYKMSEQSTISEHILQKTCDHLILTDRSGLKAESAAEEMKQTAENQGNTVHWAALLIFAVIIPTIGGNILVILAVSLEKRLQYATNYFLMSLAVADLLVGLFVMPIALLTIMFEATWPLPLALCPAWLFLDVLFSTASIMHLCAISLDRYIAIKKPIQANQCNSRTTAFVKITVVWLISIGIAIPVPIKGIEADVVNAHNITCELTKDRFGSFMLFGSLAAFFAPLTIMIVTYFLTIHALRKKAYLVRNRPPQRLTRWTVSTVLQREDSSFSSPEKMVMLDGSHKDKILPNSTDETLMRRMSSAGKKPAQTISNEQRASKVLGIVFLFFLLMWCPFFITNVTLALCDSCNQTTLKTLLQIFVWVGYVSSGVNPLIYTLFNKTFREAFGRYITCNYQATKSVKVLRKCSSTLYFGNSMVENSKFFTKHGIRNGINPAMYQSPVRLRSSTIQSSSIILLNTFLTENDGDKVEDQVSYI
UniProt P08908, whole entry: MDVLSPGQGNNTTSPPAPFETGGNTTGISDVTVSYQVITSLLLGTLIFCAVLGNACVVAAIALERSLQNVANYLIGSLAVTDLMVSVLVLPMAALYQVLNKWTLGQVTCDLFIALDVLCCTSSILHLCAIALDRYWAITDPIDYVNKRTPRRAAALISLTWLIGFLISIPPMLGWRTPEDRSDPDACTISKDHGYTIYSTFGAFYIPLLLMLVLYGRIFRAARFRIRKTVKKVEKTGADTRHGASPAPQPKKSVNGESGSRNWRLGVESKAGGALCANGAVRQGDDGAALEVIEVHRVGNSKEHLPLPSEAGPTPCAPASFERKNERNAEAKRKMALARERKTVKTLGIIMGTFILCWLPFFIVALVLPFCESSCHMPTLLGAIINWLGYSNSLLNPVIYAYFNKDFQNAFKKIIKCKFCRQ

Columns and labels:
[1] = biological target: Serotonin 2 (5-HT2) receptor (Rattus norvegicus, UniProt P08909+P14842+P30994)
[2] = biological target: 5-hydroxytryptamine receptor 1A (Homo sapiens, UniProt P08908)

`CNS(=O)(=O)Cc1ccc2[nH]cc(CCN(C)C)c2c1` [Sumax] showed a Kd [1] greater than 100 µM and a Kd [2] of 3.16 µM.
